Data on one substance can be found in patent US20260041680A1, “METHODS OF TREATING CANCER WITH LONG-ACTING TOPOISOMERASE I INHIBITOR” (priority 2022, published 2026).

Data set [1] deals with H460 human lung cancer xenograft. In words: H460 human lung cancer xenograft, antitumor activity and tolerability. Particulars: PLX038 IV 200 mg/kg, cisplatin IP 5 mg/kg, once a week for 2 weeks.
Data set [2] concerns HCT116 human colon cancer xenograft. The data set can be described thus: HCT116 human colon cancer xenograft, antitumor activity and tolerability. The following applies: PLX038 200 mg/kg, irinotecan 60 mg/kg, IV once a week for 2 weeks.
Data set [3] has as its system MKN45 human gastric cancer xenograft. In words: MKN45 human gastric cancer xenograft, antitumor activity and tolerability. Particulars: PLX038 200 mg/kg, irinotecan 60 mg/kg, IV once a week for 2 weeks.
For data set [4], the system named is NCI-N87 human gastric cancer xenograft. In words: NCI-N87 human gastric cancer xenograft, antitumor activity and tolerability. The following applies: PLX038 200 mg/kg, irinotecan 60 mg/kg, IV once a week for 2 weeks.
Data set [5] has as its system Panc-1 human pancreatic cancer xenograft. In words: Panc-1 human pancreatic cancer xenograft, antitumor activity and tolerability. The following applies: PLX038 IV 200 mg/kg, gemcitabine IP 50 mg/kg, once a week for 2 weeks.
Data set [6] has as its system H446 human small cell lung cancer xenograft. The data set can be described thus: H446 human small cell lung cancer xenograft, antitumor activity and tolerability. Particulars: PLX038 IV 200 mg/kg, cisplatin IP 5 mg/kg, once a week for 2 weeks.

On to “O-[7-(tetra-polyethylene glycol ether)-carboxamido-1-cyano-2-heptyl]-N-(10′-methoxy-7′-ethyl-camptothecin)-N-[4′-(diethylcarbamoyl)phenyl)] carbamate”, for which the tolerability result in data set [1] was “well-tolerated”; in data set [2], “well tolerated”; in data set [3] it was “well-tolerated”; in data set [4], “well-tolerated”; in data set [5] it was “well-tolerated”; in data set [6] it was “well-tolerated”.
